In general, Ki refers to the equilibrium dissociation constant of an inhibitor or competing ligand from its target. The low end stands for tighter binding, the high end for weaker binding.

The chains behind the UniProt entries cited, without tags or fusion partners.
UniProt P61169, whole entry: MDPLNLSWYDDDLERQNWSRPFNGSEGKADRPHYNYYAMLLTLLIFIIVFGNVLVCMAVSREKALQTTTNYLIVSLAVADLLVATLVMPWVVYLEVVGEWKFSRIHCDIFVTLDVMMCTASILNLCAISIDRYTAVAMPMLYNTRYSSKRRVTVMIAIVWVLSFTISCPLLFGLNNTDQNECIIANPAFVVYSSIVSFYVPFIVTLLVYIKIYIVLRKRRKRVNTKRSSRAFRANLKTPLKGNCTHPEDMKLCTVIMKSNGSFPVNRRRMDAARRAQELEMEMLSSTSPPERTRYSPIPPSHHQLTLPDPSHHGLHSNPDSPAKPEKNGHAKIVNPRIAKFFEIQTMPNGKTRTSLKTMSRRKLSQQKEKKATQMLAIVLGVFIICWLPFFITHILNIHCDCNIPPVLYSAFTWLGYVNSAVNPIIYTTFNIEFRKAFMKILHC

The assay concerns the target D(2) dopamine receptor (Rattus norvegicus, UniProt P61169). Description: Binding affinity towards dopamine receptor D2 using as [3H]-spiperone radioligand. The procedure, abridged: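 Rat striatal membranes washed in 50 mM Tris-HCl pH 7.7, then resuspended in 50 mM Tris-HCl pH 7.1 with NaCl, KCl, CaCl2, MgCl2, ascorbate and 10 μM pargyline, preincubated 10 min at 37 °C. Incubated with [3H]spiperone (0.2 nM final) for 20 min at 37 °C, then filtered. IC50 read from concentration-inhibition curves.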

`CCCCN1CCC[C@@H]1CNC(=O)c1cc(S(N)(=O)=O)cc2c1O[C@H](C)C2` yielded a Ki of 23 nM.

The record behind these values is ChEMBL document CHEMBL1125868, “Antidopaminergic effects of the stereoisomers of N-[(1-alkyl-2- pyrrolidinyl)methyl]-5-sulfamoylbenzamides and -2,3-dihydrobenzofuran-7-carboxamides” (J Med Chem, 1991).
